# Source: ChEMBL document CHEMBL5528084, “Discovery and Characterization of a New Class of C5aR1 Antagonists Showing In Vivo Activity” (J Med Chem, 2024)
# Calls of active or inactive are those of the source. No cut-off for these calls is given here.
# Target: T1, C3a anaphylatoxin chemotactic receptor (Homo sapiens) (UniProt Q16581)
# T1 sequence (whole entry): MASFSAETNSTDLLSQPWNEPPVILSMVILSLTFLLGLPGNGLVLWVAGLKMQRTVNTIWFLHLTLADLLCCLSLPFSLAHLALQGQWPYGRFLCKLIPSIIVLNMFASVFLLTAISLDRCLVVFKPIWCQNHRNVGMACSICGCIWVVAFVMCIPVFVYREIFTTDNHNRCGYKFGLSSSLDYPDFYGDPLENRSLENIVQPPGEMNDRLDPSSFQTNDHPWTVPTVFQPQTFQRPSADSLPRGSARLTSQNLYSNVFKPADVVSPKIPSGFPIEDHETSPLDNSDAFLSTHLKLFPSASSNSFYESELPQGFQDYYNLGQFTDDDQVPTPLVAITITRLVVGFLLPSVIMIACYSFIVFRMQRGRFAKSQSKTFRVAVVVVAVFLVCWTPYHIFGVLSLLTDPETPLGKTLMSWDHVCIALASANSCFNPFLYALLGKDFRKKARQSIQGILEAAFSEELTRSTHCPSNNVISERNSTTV
# Experiment: Inhibition of C3aR (unknown origin) upto 25 uM
structure (smiles),measurement,value
Cc1cccc(F)c1N1CCC(N2Cc3ccccc3N(Cc3ccccc3C(F)(F)F)C2=O)CC1,inhibition,inactive
